Assay results as given in PMC6465774 (Frontiers in Pharmacology, 2019).

Sequences of proteins named here, by UniProt entry; tags and fusion partners are left off.
UniProt P33535, whole entry: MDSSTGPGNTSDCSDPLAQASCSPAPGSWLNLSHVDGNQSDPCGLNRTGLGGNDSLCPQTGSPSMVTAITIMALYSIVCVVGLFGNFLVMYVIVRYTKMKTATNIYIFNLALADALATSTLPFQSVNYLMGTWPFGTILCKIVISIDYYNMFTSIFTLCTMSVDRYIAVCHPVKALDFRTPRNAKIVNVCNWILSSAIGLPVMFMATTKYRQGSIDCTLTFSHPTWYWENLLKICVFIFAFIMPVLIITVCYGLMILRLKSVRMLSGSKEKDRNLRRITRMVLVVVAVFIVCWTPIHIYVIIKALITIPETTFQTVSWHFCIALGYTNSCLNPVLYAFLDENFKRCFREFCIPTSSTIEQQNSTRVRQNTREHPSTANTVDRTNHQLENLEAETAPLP

Target: T1, MOR (Rattus norvegicus, UniProt P33535)
T1 construct: incubating 50–100 μg of membrane protein of lumbar dorsal horn with 0.1- 4 nM; from tissue; host or cells: rat lumbar (L3-5) dorsal spinal cord / dorsal horn membranes, diabetic and control rats
Assay: [3H]DAMGO saturation binding in dorsal spinal cord membranes
Conditions: dorsal horn membranes of control rats; read-out: dissociation constant (Kd), control rats

SMILES: C[C@@H](NC(=O)[C@@H](N)Cc1ccc(O)cc1)C(=O)NCC(=O)N(C)[C@@H](Cc1ccccc1)C(=O)NCCO [DAMGO, Tyr-D-Ala-Gly-(NMe)Phe-Gly-ol]
- Kd: 0.29 ± 0.17 nM
